Paper PMC3961306, “Comparison of the Cancer Gene Targeting and Biochemical Selectivities of All Targeted Kinase Inhibitors Approved for Clinical Use” (PLoS ONE, 2014)

By UniProt entry, the sequences of proteins in these tests, tags left out. Residues count along the entry.
UniProt P41240, whole entry, stated change not applied: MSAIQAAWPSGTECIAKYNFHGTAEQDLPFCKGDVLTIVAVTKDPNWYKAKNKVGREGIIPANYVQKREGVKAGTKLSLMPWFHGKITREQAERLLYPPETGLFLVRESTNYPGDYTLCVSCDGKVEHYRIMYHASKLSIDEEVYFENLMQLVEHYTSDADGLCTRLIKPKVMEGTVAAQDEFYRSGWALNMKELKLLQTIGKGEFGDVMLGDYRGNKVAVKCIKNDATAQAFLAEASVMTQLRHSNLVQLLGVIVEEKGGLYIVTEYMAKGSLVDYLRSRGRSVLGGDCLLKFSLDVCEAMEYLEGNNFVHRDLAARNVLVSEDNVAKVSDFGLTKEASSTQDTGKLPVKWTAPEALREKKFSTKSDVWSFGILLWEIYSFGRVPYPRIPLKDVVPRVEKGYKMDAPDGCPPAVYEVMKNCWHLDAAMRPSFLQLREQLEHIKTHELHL
UniProt O75914, whole entry, stated change not applied: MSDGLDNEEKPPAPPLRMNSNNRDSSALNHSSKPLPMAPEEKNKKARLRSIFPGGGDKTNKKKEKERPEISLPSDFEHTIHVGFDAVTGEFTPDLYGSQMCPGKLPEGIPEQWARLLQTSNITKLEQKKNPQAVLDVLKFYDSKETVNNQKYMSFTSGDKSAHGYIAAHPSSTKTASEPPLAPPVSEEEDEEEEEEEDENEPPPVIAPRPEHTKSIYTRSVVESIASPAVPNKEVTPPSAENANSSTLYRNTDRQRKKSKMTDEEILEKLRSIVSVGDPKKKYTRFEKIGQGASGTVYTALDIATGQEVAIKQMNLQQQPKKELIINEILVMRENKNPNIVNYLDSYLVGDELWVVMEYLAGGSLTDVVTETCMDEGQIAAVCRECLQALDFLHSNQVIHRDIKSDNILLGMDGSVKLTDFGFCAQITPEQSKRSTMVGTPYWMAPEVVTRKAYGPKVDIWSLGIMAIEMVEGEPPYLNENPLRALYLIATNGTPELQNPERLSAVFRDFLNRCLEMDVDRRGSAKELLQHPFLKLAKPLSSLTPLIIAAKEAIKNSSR
UniProt Q15349, whole entry, stated change not applied: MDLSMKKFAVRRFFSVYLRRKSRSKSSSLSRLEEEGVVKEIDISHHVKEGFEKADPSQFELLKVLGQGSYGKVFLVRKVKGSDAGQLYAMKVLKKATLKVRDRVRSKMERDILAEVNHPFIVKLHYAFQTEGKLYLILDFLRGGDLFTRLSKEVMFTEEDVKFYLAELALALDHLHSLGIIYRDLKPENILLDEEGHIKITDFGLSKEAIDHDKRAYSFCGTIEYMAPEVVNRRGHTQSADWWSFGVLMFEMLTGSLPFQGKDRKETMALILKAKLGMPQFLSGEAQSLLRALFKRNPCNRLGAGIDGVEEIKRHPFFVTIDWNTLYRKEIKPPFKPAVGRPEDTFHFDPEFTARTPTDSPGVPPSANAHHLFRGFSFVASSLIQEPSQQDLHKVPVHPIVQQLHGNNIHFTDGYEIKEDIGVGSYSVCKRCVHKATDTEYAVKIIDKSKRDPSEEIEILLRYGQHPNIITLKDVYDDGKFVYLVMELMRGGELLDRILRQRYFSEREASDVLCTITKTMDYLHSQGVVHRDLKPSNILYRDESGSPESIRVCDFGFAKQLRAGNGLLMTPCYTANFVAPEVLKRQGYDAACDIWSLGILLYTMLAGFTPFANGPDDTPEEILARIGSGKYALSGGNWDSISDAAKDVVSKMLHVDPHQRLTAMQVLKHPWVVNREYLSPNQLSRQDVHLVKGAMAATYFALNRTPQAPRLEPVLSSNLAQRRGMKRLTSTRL
UniProt Q02763, 23-1124, stated change not applied: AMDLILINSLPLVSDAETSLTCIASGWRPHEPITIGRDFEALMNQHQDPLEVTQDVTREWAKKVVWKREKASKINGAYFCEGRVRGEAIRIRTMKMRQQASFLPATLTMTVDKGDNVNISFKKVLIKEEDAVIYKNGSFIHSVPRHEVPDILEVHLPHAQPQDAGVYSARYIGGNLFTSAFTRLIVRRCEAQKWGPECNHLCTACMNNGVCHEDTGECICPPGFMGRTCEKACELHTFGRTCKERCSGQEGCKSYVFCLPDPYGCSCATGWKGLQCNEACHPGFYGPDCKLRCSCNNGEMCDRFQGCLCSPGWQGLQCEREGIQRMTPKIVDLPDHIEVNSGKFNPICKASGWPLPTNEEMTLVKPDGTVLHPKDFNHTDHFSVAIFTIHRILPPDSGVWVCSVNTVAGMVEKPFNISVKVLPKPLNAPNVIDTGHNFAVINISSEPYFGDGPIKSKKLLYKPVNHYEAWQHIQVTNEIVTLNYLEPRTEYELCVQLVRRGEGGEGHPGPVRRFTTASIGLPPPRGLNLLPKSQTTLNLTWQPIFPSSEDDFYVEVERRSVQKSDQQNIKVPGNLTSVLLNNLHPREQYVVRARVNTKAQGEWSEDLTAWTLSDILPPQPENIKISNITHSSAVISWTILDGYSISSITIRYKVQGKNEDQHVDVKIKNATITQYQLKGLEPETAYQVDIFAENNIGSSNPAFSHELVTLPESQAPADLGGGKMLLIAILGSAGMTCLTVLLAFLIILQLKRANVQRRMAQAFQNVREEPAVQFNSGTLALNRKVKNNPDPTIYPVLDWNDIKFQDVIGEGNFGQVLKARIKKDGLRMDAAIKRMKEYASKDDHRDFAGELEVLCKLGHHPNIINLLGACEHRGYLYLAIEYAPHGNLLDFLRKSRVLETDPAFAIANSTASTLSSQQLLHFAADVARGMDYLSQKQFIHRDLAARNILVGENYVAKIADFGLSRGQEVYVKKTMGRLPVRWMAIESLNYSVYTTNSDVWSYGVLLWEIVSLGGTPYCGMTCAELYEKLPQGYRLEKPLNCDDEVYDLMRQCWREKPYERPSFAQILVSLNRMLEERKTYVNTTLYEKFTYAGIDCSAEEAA

What was measured:
[1] = tested on: panel of more than 300 wild-type and mutant kinases (313 kinase panel); test: Kinase profiling in a biochemical assay panel (mobility shift assays and ELISA), %-inhibition at 1 μM; selectivity entropy; settings: for %-inhibition of EML4-ALK / %-inhibition of LYNb / %-inhibition of PKCβ2 / %-inhibition of SRM: 1 µM
[2] = tested on: forty-four human cancer cell lines; test: Cell proliferation assay (ATPlite, 72 hours) in the 44 cell line Oncolines panel; settings: read-out: IC50 in cell proliferation assay (table S5 cellpanel data), U-87 MG cell line
[3] = molecular target: panel of more than 300 wild-type and mutant kinases (313 kinase panel) (Homo sapiens, UniProt P41240); test: Kinase profiling in a biochemical assay panel (mobility shift assays and ELISA), %-inhibition at 1 μM; selectivity entropy; settings: 1 µM
[4] = molecular target: panel of more than 300 wild-type and mutant kinases (313 kinase panel) (Homo sapiens, UniProt O75914); test: as above; settings: 1 µM
[5] = molecular target: panel of more than 300 wild-type and mutant kinases (313 kinase panel) (Homo sapiens, UniProt Q15349); test: as above; settings: kinase RSK3; 1 μM
[6] = molecular target: panel of more than 300 wild-type and mutant kinases (313 kinase panel) (Homo sapiens, UniProt Q02763); test: as above; settings: TIE2, 1 μM inhibitor

Question: With `Cc1nc(Nc2ncc(C(=O)Nc3c(C)cccc3Cl)s2)cc(N2CCN(CCO)CC2)n1` [dasatinib] as the compound, how does the “%-inhibition of NPM1-ALK” value [1] read?
Answer: -7.5%

Question: What about the “%-inhibition of TAK1-TAB1” value [1] of the same compound?
Answer: 5.29%

Question: What about the “%-inhibition of EML4-ALK” value [1] of the same compound?
Answer: -5%

Question: And the “%-inhibition of LYNb” value [1]?
Answer: 102%

Question: What about the “%-inhibition of PKCβ2” value [1] of the same compound?
Answer: 5.27%

Question: And the “%-inhibition of SRM” value [1]?
Answer: 100%

Question: `COc1cccc2c1C(=O)c1c(O)c3c(c(O)c1C2=O)C[C@@](O)(C(=O)CO)C[C@@H]3O[C@H]1C[C@H](N)[C@H](O)[C@H](C)O1` [doxorubicin] was tested. Which IC50 [2] did it give?
Answer: 101 nM

Question: For `C#Cc1cccc(Nc2ncnc3cc(OCCOC)c(OCCOC)cc23)c1` [erlotinib], which “%-inhibition of CSK” value [3] is on record?
Answer: 4.27%

Question: And the “%-inhibition of PAK3” value [4]?
Answer: -4.27%

Question: `O=S(=O)(c1cccc2cnccc12)N1CCCNCC1` [fasudil] was tested. Which “%-inhibition of RSK3” value [5] did it give?
Answer: 42%

Question: What does the source list for `CS(=O)(=O)CCNCc1ccc(-c2ccc3ncnc(Nc4ccc(OCc5cccc(F)c5)c(Cl)c4)c3c2)o1` [lapatinib]?
Answer: %-inhibition of TAK1-TAB1 [1]: -1.15%; %-inhibition of EML4-ALK [1]: -4.22%

Question: For `CNC(=O)c1cc(Oc2ccc(NC(=O)Nc3ccc(Cl)c(C(F)(F)F)c3)c(F)c2)ccn1` [regorafenib], which “Biochemical inhibition of TIE2” value [6] is on record?
Answer: minor

Question: How did the “%-inhibition of NPM1-ALK” value [1] turn out when `CNC(=O)c1cc(Oc2ccc(NC(=O)Nc3ccc(Cl)c(C(F)(F)F)c3)cc2)ccn1` [sorafenib] was run?
Answer: -9%

Question: And the “%-inhibition of TAK1-TAB1” value [1]?
Answer: 48%

Question: What about the “%-inhibition of EML4-ALK” value [1] of the same compound?
Answer: -1.16%

Question: And the “%-inhibition of LYNb” value [1]?
Answer: 69%

Question: And the “%-inhibition of PKCβ2” value [1]?
Answer: -3.4%

Question: What about the “%-inhibition of SRM” value [1] of the same compound?
Answer: 28%
